Reference: patent publication US20180030537A1, “PUMA, A PRO-APOPTOTIC GENE, AS A NOVEL MOLECULAR BIOMARKER FOR TNFALPHA-INDUCED HUMAN ISLET DAMAGE” (CITY OF HOPE, priority 2010, published 2018)

Test system: human islets
Assay: Preproinsulin precursor mRNA synthesis and total insulin release of single human islets
Type: cell-based
Experimental: FIGS. 3A-D. TNF-α, but not IFNγ, impairs glucose induced preproinsulin precursor mRNA in human islets. FIG. 3A) Insulin content of medium supernatant from a single human islet culture in hextuplicate during 16 hours in low- or high-glucose media with or without 50 ng/ml TNF-α was measured. FIG. 3B) The glucose induced newly synthesized preproinsulin precursor mRNA measured by pre-spliced preproinsulin mRNA normalized by pre- and post-spliced preproinsulin mRNA (% exon) in the corresponding islets with or without 50 ng/ml. TNF-α was also examined (n=3, *p<0.05). FIG. 3C) Glucose induced preproinsululin precursor mRNA synthesis with or without TNF-α (1, 5 and 50 ng/ml) and/or IFNγ (10, 100 and 1000 U/ml) from a single human islet in hextuplicate. FIG. 3D) Correlation between PUMA mRNA and INS precursor mRNA levels in islets cultured in high-glucose media treated with TNF-α (1, 5 and 50 ng/ml), IFN-γ (10, 100 and 1000 U/ml) or a combination of both for 16 hours. The data points are from a total of 53 single islets (r=−0.45, p<0.001). All data are presented as a mean±standard error.
Hand picked human islets were cultured with 100 uL of RPMI 1640 medium containing 5% fetal bovine serum and either low-glucose (3.3 mmol/L) or high-glucose (17 mmol/L) for 16 hours. Preproinsulin mRNA synthesis was measured from the islets by the methods described above. Pre-spliced preproinsulin mRNA (preproinsulin precursor mRNA) was normalized by pre- and post-spliced preproinsulin mRNA as described previously (32). Specifically, primer pairs used to perform qRT-PCR of pre-spliced preproinsulin mRNA are as follows: AGGTGGGCTCAGGATTCCA (SEQ ID NO. 1) (In1 upstream) and TCACCCCCACATGCTTCAC (SEQ ID NO. 2) (In1 downstream); […] (SEQ ID NO. 3) (In2 upstream) and […] (SEQ ID NO. 4) (In2 downstream); CTCTGCCTCGCCGCTGTTC (SEQ ID NO. 5) (In2Ex3 upstream) and […] (SEQ ID NO. 6) (In2Ex3 downstream); […] (SEQ ID NO. 7) (Ex2a upstream) and […] (SEQ ID NO. 8) (Ex2a downstream); […] (SEQ ID NO. 9) (Ex2b upstream) and CCACAATGCCACGCTTCTG (SEQ ID NO. 10) (Ex2b downstream); and […] […]

Substance: TNF-α: recombinant human (or rat, for INS-1) TNF-α, R&D Systems; cytokine stimulus
- insulin release (50 ng/mL, low or high glucose medium, 16-hour culture, FIG. 3A): did not change insulin release levels
- glucose-induced preproinsulin precursor mRNA synthesis (16 hours, high glucose, TNF-α 50 ng/mL, IFNγ 10-1000 U/ml, FIG. 3B, 3C): totally abolished
- concentration abrogating the preproinsulin precursor mRNA synthesis response to high glucose (16 hours, FIG. 3C): 5 ng/mL
